Laboratory results as given in patent publication US20110263827A1 (AbbVie / Abbott, published 2011).
Where “and” joins values, the source holds several entries; their conditions need not be identical. Equal values may be shown once.

Chains of the proteins cited; added tags and fusions are not shown. A line that says so, or that is headed by a name, gives the form on record, which may keep a tag or linker.
UniProt P15692, other isoform, or with tags, fused parts or gaps limits assumed: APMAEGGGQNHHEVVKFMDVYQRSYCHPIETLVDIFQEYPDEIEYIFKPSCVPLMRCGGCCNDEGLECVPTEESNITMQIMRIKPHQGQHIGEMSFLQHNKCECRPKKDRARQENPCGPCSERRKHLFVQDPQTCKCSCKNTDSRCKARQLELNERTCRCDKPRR

Target: T1, VEGF (UniProt P15692-4 27-191, limits assumed, biotinylated)
T1 construct: ELISA antigen
Test: direct bind ELISA, ref Ab

B1: AB070 (antibody, V domains shown)
VH: EVQLVESGGGLVQPGGSLRLSCAASGFTISDYWIHWVRQAPGKGLEWVAGITPAGGYTYYADSVKGRFTISADTSKNTAYLQMNSLRAEDTAVYYCARFVFFLPYAMDYWGQGTLVTVSS
VL: DIQMTQSPSSLSASVGDRVTITCRASQDVSTAVAWYQQKPGKAPKLLIYSASFLYSGVPSRFSGSGSGTDFTLTISSLQPEDFATYYCQQSYTTPPTFGQGTKVEIKR
notes: parent antibody
B1 was tested, and the EC50 was 5.12 nM and 5.91 nM.
